The record followed here is patent US20160279204A1, “PEPTIDES AND PHARMACEUTICAL COMPOSITIONS FOR USE IN THE TREATMENT BY NASAL ADMINISTRATION OF PATIENTS SUFFERING FROM ANXIETY AND SLEEP DISORDERS” (MAX-PLANCK-GESELLSCHAFT ZUR FÖRDERUNG DER WISSENSCHAFT E.V., priority 2011, published 2016).

In this data set the test system is NPS target cells in the murine brain. The data set is described as follows: Intracerebral distribution of fluorophore-labelled NPS after ICV injection. Particulars: 30 min. The protocol: The mice were sacrificed 30 min post-injection.
Immunohistochemistry was performed on free-floating cryosections (40 μm).

Turning to rhodamine [pure rhodamine], the “intracerebral distribution pattern (specificity)” value is recorded as “dispersed homogenously in the intercellular space throughout the entire brain”.
